For one experiment, the system named is Rattus norvegicus. Nature of the experiment: Dose required to produce 50% of the maximum possible analgesic effect evaluated through rat paw pressure assay with the compound being administered through intravenous route.
The target of experiment [1] is T1, Kappa-type opioid receptor (Cavia porcellus, UniProt P41144). Description: Opioid receptor kappa affinity, determined with [3H]etorphine in the presence of excess unlabeled [D-Ala2-MePhe4-Glyol5]-enkephalin.
Experiment [2] addresses T2, Mu-type opioid receptor (Cavia porcellus, UniProt P97266). Description: Compound was evaluated for the opioid receptor mu affinity determined with [3H][D-Ala2-MePhe4-Gly-ol5]-enkephalin (DAGOL) in the presence of excess unlabeled DAGOL to suppress mu binding.
Experiment [3] has as its target T1, Kappa-type opioid receptor. Description: Compound was evaluated for Opioid receptor kappa 1 affinity, determined with [3H]etorphine in the presence of excess unlabeled [D-Ala2-MePhe4-Glyol5]-enkephalin to suppress kappa binding.
Experiment [4] concerns the target T2, Mu-type opioid receptor. Description: Compound was evaluated for the Opioid receptor mu 1 affinity determined with [3H][D-Ala2-MePhe4-Gly-ol5]-enkephalin (DAGOL) in the presence of excess unlabeled DAGOL to suppress mu binding.
The target in experiment [5] is T2, Mu-type opioid receptor. Nature of the experiment: Compound was evaluated for the Opioid receptor mu affinity determined with [3H][D-Ala2-MePhe4-Gly-ol5]-enkephalin (DAGOL) in the presence of excess unlabeled DAGOL to suppress mu binding.

Chains of the proteins cited; added tags and fusions are not shown. Lines headed by an entry give the natural chain unless they say otherwise; changes in a name come on top.
UniProt P41144: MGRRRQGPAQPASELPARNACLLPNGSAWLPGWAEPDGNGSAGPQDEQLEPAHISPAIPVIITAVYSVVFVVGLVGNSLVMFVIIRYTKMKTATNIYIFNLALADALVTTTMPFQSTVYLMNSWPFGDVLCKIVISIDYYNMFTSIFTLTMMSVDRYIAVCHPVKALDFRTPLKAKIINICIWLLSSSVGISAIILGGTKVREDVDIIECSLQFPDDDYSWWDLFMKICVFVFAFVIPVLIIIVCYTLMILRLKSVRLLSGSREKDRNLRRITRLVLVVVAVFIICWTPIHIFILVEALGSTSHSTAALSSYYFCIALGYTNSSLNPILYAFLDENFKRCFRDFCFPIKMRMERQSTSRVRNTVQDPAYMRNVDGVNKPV
UniProt P97266, whole entry, looked up: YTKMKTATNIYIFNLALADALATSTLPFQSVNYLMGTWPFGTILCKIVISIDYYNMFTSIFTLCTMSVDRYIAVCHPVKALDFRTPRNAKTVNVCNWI

Regarding `CN(C(=O)Cc1cccc2occc12)[C@H]1CCC2(CCCO2)C[C@@H]1N1CCCC1.Cl` (stereo not given in full), in the experiment with Rattus norvegicus, the MPE50 amounted to 0.027 mg/kg.

As to `CC1c2cccc3cccc(c23)C1C(=O)N(C)[C@H]1CCC2(CCCO2)C[C@@H]1N1CCNC1` (stereo not given in full), the Ki (commonly a measure of affinity in units of concentration, obtained from inhibition or displacement) in experiment [1] was 1.2 nM; at Mu-type opioid receptor [2], 273 nM.

Consider `CN(C(=O)Cc1cccc2ccccc12)[C@H]1CCC2(CCCO2)C[C@@H]1N1CCCC1` (stereo not given in full), for which the Ki in experiment [3] amounted to 3.35 nM; at Mu-type opioid receptor [4] it was 864 nM.

With `CC1c2cccc3cccc(c23)C1C(=O)N(C)[C@H]1CCC2(CCCO2)C[C@@H]1N1CCNC1.Cl` (stereo not given in full), the MPE50 in the experiment on Rattus norvegicus was determined as 0.43 mg/kg.

Take `CN(C(=O)Cc1cccc2occc12)[C@H]1CCC2(CCCO2)C[C@@H]1N1CCCC1` (stereo not given in full): the Ki in experiment [3] is 0.83 nM; at Mu-type opioid receptor [4], 1260 nM.

Compound `CN(C(=O)Cc1cccc2sccc12)[C@H]1CCCC[C@@H]1N1CCCC1.Cl` displayed an MPE50 in the experiment on Rattus norvegicus of 1.4 mg/kg.

With `CN(C(=O)Cc1cccc2sccc12)[C@H]1CCCC[C@@H]1N1CCCC1`, the Ki at Mu-type opioid receptor [5] worked out at 410 nM.

The record behind these values is ChEMBL document CHEMBL1125721, “Highly selective kappa opioid analgesics. 4. Synthesis of some conformationally restricted naphthalene derivatives with high receptor affinity and selectivity” (1991).
